Experimental data: patent publication US10131558B1, “Compositions, methods, and/or systems for managing sulfide” (priority 2016, dated 2018)

Assay: Treatment of sulfides in municipal wastewater using ferric chelants and hydrogen peroxide
Conditions: no H2O2, 30 min

## O=C([O-])CN(CCO)CC(=O)[O-].[Fe+3] [Fe-HEIDA]
Series One, start 25.4 ppm, chelant only
  Sulfide Remaining: 25.2 ppm
Series Two, start 42.3 ppm, chelant only at 20 ppm
  Sulfide Remaining: 41.5 ppm
